Laboratory results reported in PMC6121034 (Frontiers in Cellular Neuroscience, 2018).

Chains of the proteins cited; added tags and fusions are not shown. Lines headed by an entry give the natural chain unless they say otherwise; changes in a name come on top. Residues count along the entry.
UniProt P18508, 39-466: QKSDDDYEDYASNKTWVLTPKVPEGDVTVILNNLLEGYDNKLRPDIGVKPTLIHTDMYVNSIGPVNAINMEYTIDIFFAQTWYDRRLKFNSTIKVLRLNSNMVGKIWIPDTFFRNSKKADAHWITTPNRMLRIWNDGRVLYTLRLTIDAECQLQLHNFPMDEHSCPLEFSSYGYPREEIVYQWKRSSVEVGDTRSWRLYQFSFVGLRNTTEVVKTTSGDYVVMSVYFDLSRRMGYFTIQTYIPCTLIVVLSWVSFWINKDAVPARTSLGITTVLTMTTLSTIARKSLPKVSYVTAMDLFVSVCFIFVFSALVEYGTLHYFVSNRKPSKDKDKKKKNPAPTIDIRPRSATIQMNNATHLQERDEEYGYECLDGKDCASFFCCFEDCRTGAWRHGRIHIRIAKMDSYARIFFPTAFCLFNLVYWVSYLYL
UniProt P62813, 28-455: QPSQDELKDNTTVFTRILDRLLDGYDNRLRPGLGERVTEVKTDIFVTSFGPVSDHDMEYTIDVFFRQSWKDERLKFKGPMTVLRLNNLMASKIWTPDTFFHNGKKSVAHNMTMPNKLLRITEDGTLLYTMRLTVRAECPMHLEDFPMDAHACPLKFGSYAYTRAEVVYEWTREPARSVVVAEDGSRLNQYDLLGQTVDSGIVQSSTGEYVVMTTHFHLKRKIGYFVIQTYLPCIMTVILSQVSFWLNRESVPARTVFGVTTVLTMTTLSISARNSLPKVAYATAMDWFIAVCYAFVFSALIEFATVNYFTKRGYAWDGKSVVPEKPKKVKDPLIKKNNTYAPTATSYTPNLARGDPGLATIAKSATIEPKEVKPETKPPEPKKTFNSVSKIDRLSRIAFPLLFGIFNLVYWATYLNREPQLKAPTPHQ
UniProt P62813, 28-455 F91C: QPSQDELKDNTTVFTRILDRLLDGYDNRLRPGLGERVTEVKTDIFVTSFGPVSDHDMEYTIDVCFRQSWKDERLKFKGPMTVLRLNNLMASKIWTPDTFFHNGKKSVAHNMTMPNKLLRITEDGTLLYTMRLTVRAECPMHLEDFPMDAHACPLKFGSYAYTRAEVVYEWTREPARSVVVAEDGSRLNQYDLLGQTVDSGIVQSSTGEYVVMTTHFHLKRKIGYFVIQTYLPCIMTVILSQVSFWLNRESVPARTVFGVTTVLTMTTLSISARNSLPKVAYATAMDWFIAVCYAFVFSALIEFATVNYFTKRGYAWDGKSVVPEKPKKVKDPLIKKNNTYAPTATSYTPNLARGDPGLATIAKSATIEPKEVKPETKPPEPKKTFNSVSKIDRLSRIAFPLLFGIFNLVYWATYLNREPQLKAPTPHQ
UniProt P62813, 28-455 F91A: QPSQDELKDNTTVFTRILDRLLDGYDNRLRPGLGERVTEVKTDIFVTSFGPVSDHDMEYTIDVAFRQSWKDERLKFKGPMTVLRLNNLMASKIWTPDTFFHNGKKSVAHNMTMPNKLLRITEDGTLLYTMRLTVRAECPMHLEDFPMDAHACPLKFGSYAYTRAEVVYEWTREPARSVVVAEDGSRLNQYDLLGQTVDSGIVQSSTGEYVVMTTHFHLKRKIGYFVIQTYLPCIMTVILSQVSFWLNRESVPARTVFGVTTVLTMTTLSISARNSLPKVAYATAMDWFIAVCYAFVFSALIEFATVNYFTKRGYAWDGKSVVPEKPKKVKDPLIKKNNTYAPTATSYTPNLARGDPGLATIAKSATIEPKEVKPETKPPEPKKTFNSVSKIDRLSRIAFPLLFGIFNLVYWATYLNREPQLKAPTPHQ
UniProt P63138, 26-474: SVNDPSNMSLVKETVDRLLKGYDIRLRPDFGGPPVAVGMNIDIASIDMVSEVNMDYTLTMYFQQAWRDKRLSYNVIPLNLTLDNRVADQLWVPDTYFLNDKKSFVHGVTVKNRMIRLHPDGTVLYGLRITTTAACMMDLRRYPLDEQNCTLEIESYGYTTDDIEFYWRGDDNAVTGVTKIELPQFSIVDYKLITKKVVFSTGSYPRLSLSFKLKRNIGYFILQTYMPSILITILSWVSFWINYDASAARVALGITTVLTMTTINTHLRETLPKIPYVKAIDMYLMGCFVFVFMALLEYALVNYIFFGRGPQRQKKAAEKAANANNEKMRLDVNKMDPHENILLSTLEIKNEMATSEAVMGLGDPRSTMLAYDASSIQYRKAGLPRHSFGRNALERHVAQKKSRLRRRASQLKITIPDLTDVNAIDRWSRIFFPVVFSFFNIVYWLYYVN

Assays:
[1] = molecular target: α1β2γ2 GABAA receptor (α1 subunit) (Rattus norvegicus, UniProt P18508+P62813+P63138); parameters: gene Gabra1
[2] = molecular target: T1, α1β2γ2 GABAA receptor (α1 subunit), CYS mutant (Rattus norvegicus, UniProt P18508+P62813+P63138, P62813:F91C)
T1 construct: gene Gabra1

[3] = molecular target: α1β2γ2 GABAA receptor (α1 subunit), ALA mutant (Rattus norvegicus, UniProt P18508+P62813+P63138, P62813:F91A); parameters: gene Gabra1

## CCN(CC)CCN1C(=O)CN=C(c2ccccc2F)c2cc(Cl)ccc21 [FLU, flurazepam]
[1]
  whole-cell patch clamp and single-channel recording; potentiation of spontaneous: Relative enhancement of spontaneous activity by FLU
[2]
  whole-cell patch clamp and single-channel recording; potentiation of spontaneous: FLU produced a similar effect on the activity of the WT and CYS mutants by significantly increasing both time constants
[3]
  whole-cell patch clamp; potentiation of spontaneous and GABA-evoked currents at: potentiation in both pretreatment and co-application protocols was significant
